From patent publication US20260256778A1 (AbbVie Inc., priority 2023, published 2026)
Read-outs that look alike come from different tables or passages of the source.

System: non-segmental vitiligo (NSV)
Settings: for Percent CFB in F-VASI; LSMEAN (SE): Week 24, MMRM
[1] = 11 mg, Week 52, Intent-to-Treat, MMRM/NRI-MI
[2] = 22 mg, Week 52, Intent-to-Treat, MMRM/NRI-MI

CC[C@@H]1CN(C(=O)NCC(F)(F)F)C[C@@H]1c1cnc2cnc3[nH]ccc3n12 [Upadacitinib, (3S,4R)-3-ethyl-4-(3H-imidazo[1,2-a]pyrrolo[2,3-e]pyrazin-8-yl)-N-(2,2,2-trifluoroethyl) pyrrolidine-1-carboxamide]
% Achieving much better or a little better on PhGIC (6 mg QD, Week 24): 42.9% | F-VASI 50; (%) (6 mg QD, Week 24): 16.3% | T-VASI 50 (%) (6 mg, Week 52, Intent-to-Treat, MMRM/NRI-MI): 24.5% | Percent CFB in F-VASI; LSMEAN (SE) (11 mg QD oral): met the primary endpoint | % Achieving much better or a little better on PhGIC (11 mg QD, Week 24): 59.6% | F-VASI 50; (%) (11 mg QD, Week 24): 38.3% | T-VASI 50 (%) (11 mg QD, Week 24): did not meet the T-VASI 50 secondary endpoint | F-VASI 75 (%) (11 mg, Week 52, As Observed): 63.2% | T-VASI 50 (%) (11 mg, Week 52, As Observed): 39.5% | F-VASI 75 (%) [1]: 51.1% | T-VASI 50 (%) [1]: 31.9% | Percent CFB in F-VASI; LSMEAN (SE) (22 mg QD oral): met the primary endpoint | F-VASI 75 (%) (22 mg, Week 52, As Observed): 37.9% | T-VASI 50 (%) (22 mg, Week 52, As Observed): 41.4% | F-VASI 75 (%) [2]: 25.6% | T-VASI 50 (%) [2]: 27.9%
